Literature values in PMC12645430.

Target: Thioredoxin 1 (Escherichia coli) [thioredoxin: P0AA25]

In the case of “DNA-directed DNA polymerase (gp5) (from UniProt P00581)”, the Kd is given as 5 nM.
